Biological target: Streptavidin (SAV) (Streptomyces avidinii, UniProt P22629)

Protein sequences, listed by entry. Tags and fused reporters are not part of them. Residues count along the entry.
UniProt P22629, 25-183, species assumed: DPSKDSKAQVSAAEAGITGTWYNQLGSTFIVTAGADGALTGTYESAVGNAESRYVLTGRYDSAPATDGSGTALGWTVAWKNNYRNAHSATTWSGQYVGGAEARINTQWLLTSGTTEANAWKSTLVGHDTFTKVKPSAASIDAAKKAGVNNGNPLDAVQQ

O=C(O)CCCC[C@@H]1SC[C@@H]2NC(=O)N[C@@H]21 [biotin]
colorimetric response of detection solution to biotin: red to blue color changes

— patent publication US20240288374A1 (priority 2023, published 2024)
